The target in the assay is Sodium-dependent serotonin transporter (Rattus norvegicus, UniProt P31652). The assay can be described thus: Inhibition of rat SERT-mediated serotonin uptake in CHO cells. It counts as cell-based.

Chains of the proteins cited; added tags and fusions are not shown.
UniProt P31652, whole entry: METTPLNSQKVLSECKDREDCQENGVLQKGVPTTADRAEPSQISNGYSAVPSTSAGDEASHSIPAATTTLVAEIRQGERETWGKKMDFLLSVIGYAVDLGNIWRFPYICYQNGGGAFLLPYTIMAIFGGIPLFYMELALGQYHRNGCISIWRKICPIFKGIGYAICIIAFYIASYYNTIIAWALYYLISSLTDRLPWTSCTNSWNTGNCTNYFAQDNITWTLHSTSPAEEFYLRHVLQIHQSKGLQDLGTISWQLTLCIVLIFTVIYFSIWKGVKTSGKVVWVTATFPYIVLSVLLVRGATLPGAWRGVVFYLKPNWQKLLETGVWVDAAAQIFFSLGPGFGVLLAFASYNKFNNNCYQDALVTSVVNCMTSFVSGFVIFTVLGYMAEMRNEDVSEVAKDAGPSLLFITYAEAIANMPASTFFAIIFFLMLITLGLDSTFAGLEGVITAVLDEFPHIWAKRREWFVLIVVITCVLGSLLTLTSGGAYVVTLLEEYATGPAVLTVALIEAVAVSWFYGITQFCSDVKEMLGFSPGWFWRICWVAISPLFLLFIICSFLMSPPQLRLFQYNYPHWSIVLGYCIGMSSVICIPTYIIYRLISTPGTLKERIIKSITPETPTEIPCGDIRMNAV

Each structure is given as a SMILES string. pIC50: −log10 of the molar value.

In general, pIC50 refers to the IC50 on a negative log10 scale, so that one unit is a factor of ten. On to `COC(=O)[C@H]1[C@@H](OC(=O)c2ccccc2)C[C@@H]2CC[C@H]1N2C` [COCAINE], for which the pIC50 was 6.40.

The values above are taken from ChEMBL document CHEMBL1138929, “Development of peptidic dopamine transporter inhibitors via aromatic modification-mediated conformational restriction” (J Med Chem, 2006).
